According to PubChem BioAssay (NCI):
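48-hour exposure; five concentrations; linearly interpolated endpoints. GI50: concentration for 50% inhibition of growth. At the TGI there is no net growth.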

How the values were obtained:
Experiment in all cases: inhibition of tumour cell growth, NCI panel, 48 h
NCI-H23 lung = tested on: NCI-H23 lung
MDA-MB-231 breast = tested on: MDA-MB-231 breast
HT29 colon = tested on: HT29 colon
SF-295 CNS = tested on: SF-295 CNS
SNB-19 CNS = tested on: SNB-19 CNS
SN12C renal = tested on: SN12C renal
IGROV1 ovarian = tested on: IGROV1 ovarian
RXF 393 renal = tested on: RXF 393 renal
UACC-62 melanoma = tested on: UACC-62 melanoma
HOP-62 NSCLC = tested on: HOP-62 NSCLC
SF-268 CNS = tested on: SF-268 CNS
UO-31 renal = tested on: UO-31 renal
COLO 205 colon = tested on: COLO 205 colon
PC-3 prostate = tested on: PC-3 prostate
UACC-257 melanoma = tested on: UACC-257 melanoma
EKVX NSCLC = tested on: EKVX NSCLC
OVCAR-4 ovarian = tested on: OVCAR-4 ovarian
786-0 renal = tested on: 786-0 renal
MDA-MB-435 = tested on: MDA-MB-435
SW-620 colon = tested on: SW-620 colon
HOP-92 NSCLC = tested on: HOP-92 NSCLC
MDA-N = tested on: MDA-N
OVCAR-8 ovarian = tested on: OVCAR-8 ovarian
OVCAR-5 ovarian = tested on: OVCAR-5 ovarian
SNB-75 CNS = tested on: SNB-75 CNS
ACHN renal = tested on: ACHN renal
HCT-116 colon = tested on: HCT-116 colon
SR leukemia = tested on: SR leukemia
TK-10 renal = tested on: TK-10 renal
HCC-2998 colon = tested on: HCC-2998 colon
HL-60(TB) leukemia = tested on: HL-60(TB) leukemia
A498 renal = tested on: A498 renal
HCT-15 colon = tested on: HCT-15 colon
M14 melanoma = tested on: M14 melanoma
KM12 colon = tested on: KM12 colon
SK-MEL-28 melanoma = tested on: SK-MEL-28 melanoma
T-47D breast = tested on: T-47D breast
DU-145 prostate = tested on: DU-145 prostate
K-562 leukemia = tested on: K-562 leukemia
MOLT-4 leukemia = tested on: MOLT-4 leukemia
A549 NSCLC = tested on: A549 NSCLC
NCI-H322M lung = tested on: NCI-H322M lung
HS 578T breast = tested on: HS 578T breast
SK-MEL-5 melanoma = tested on: SK-MEL-5 melanoma
NCI-H522 lung = tested on: NCI-H522 lung
U251 CNS = tested on: U251 CNS
SK-OV-3 ovarian = tested on: SK-OV-3 ovarian
NCI/ADR-RES ovarian = tested on: NCI/ADR-RES ovarian
SF-539 CNS = tested on: SF-539 CNS
CCRF-CEM leukemia = tested on: CCRF-CEM leukemia
CAKI-1 renal = tested on: CAKI-1 renal
NCI-H460 lung = tested on: NCI-H460 lung
OVCAR-3 ovarian = tested on: OVCAR-3 ovarian
MALME-3M melanoma = tested on: MALME-3M melanoma
LOX IMVI melanoma = tested on: LOX IMVI melanoma
RPMI-8226 leukemia = tested on: RPMI-8226 leukemia
MCF7 breast = tested on: MCF7 breast
SK-MEL-2 melanoma = tested on: SK-MEL-2 melanoma

**Q.** Which results are given for `O=C1CCC(C(=O)OC2CN3CCC2CC3)C(=O)N1` (stereo unspecified)?
**A.** GI50 (NCI-H23 lung): > 100 µM; TGI (NCI-H23 lung): > 100 µM; GI50 (MDA-MB-231 breast): > 100 µM; TGI (MDA-MB-231 breast): > 100 µM; GI50 (HT29 colon): > 100 µM; TGI (HT29 colon): > 100 µM; GI50 (SF-295 CNS): > 100 µM; TGI (SF-295 CNS): > 100 µM; GI50 (SNB-19 CNS): > 100 µM; TGI (SNB-19 CNS): > 100 µM; GI50 (SN12C renal): > 100 µM; TGI (SN12C renal): > 100 µM; GI50 (IGROV1 ovarian): > 100 µM; TGI (IGROV1 ovarian): > 100 µM; GI50 (RXF 393 renal): > 100 µM; TGI (RXF 393 renal): > 100 µM; GI50 (UACC-62 melanoma): > 100 µM; TGI (UACC-62 melanoma): > 100 µM; GI50 (HOP-62 NSCLC): > 100 µM; TGI (HOP-62 NSCLC): > 100 µM; GI50 (SF-268 CNS): > 100 µM; TGI (SF-268 CNS): > 100 µM; GI50 (UO-31 renal): 78.3 µM; TGI (UO-31 renal): > 100 µM; GI50 (COLO 205 colon): > 100 µM; TGI (COLO 205 colon): > 100 µM; GI50 (PC-3 prostate): > 100 µM; TGI (PC-3 prostate): > 100 µM; GI50 (UACC-257 melanoma): > 100 µM; TGI (UACC-257 melanoma): > 100 µM; GI50 (EKVX NSCLC): > 100 µM; TGI (EKVX NSCLC): > 100 µM; GI50 (OVCAR-4 ovarian): > 100 µM; TGI (OVCAR-4 ovarian): > 100 µM; GI50 (786-0 renal): > 100 µM; TGI (786-0 renal): > 100 µM; GI50 (MDA-MB-435): > 100 µM; TGI (MDA-MB-435): > 100 µM; GI50 (SW-620 colon): > 100 µM; TGI (SW-620 colon): > 100 µM; GI50 (HOP-92 NSCLC): > 100 µM; TGI (HOP-92 NSCLC): > 100 µM; GI50 (MDA-N): > 100 µM; TGI (MDA-N): > 100 µM; GI50 (OVCAR-8 ovarian): > 100 µM; TGI (OVCAR-8 ovarian): > 100 µM; GI50 (OVCAR-5 ovarian): > 100 µM; TGI (OVCAR-5 ovarian): > 100 µM; GI50 (SNB-75 CNS): > 100 µM; TGI (SNB-75 CNS): > 100 µM; GI50 (ACHN renal): > 100 µM; TGI (ACHN renal): > 100 µM; GI50 (HCT-116 colon): > 100 µM; TGI (HCT-116 colon): > 100 µM; GI50 (SR leukemia): > 100 µM; TGI (SR leukemia): > 100 µM; GI50 (TK-10 renal): > 100 µM; TGI (TK-10 renal): > 100 µM; GI50 (HCC-2998 colon): > 100 µM; TGI (HCC-2998 colon): > 100 µM; GI50 (HL-60(TB) leukemia): > 100 µM; TGI (HL-60(TB) leukemia): > 100 µM; GI50 (A498 renal): > 100 µM; TGI (A498 renal): > 100 µM; GI50 (HCT-15 colon): > 100 µM; TGI (HCT-15 colon): > 100 µM; GI50 (M14 melanoma): > 100 µM; TGI (M14 melanoma): > 100 µM; GI50 (KM12 colon): > 100 µM; TGI (KM12 colon): > 100 µM; GI50 (SK-MEL-28 melanoma): > 100 µM; TGI (SK-MEL-28 melanoma): > 100 µM; GI50 (T-47D breast): > 100 µM; TGI (T-47D breast): > 100 µM; GI50 (DU-145 prostate): > 100 µM; TGI (DU-145 prostate): > 100 µM; GI50 (K-562 leukemia): > 100 µM; TGI (K-562 leukemia): > 100 µM; GI50 (MOLT-4 leukemia): > 100 µM; TGI (MOLT-4 leukemia): > 100 µM; GI50 (A549 NSCLC): > 100 µM; TGI (A549 NSCLC): > 100 µM; GI50 (NCI-H322M lung): 24.4 µM; TGI (NCI-H322M lung): > 100 µM; GI50 (HS 578T breast): > 100 µM; TGI (HS 578T breast): > 100 µM; GI50 (SK-MEL-5 melanoma): > 100 µM; TGI (SK-MEL-5 melanoma): > 100 µM; GI50 (NCI-H522 lung): > 100 µM; TGI (NCI-H522 lung): > 100 µM; GI50 (U251 CNS): > 100 µM; TGI (U251 CNS): > 100 µM; GI50 (SK-OV-3 ovarian): > 100 µM; TGI (SK-OV-3 ovarian): > 100 µM; GI50 (NCI/ADR-RES ovarian): > 100 µM; TGI (NCI/ADR-RES ovarian): > 100 µM; GI50 (SF-539 CNS): > 100 µM; TGI (SF-539 CNS): > 100 µM; GI50 (CCRF-CEM leukemia): > 100 µM; TGI (CCRF-CEM leukemia): > 100 µM; GI50 (CAKI-1 renal): > 100 µM; TGI (CAKI-1 renal): > 100 µM; GI50 (NCI-H460 lung): > 100 µM; TGI (NCI-H460 lung): > 100 µM; GI50 (OVCAR-3 ovarian): > 100 µM; TGI (OVCAR-3 ovarian): > 100 µM; GI50 (MALME-3M melanoma): > 100 µM; TGI (MALME-3M melanoma): > 100 µM; GI50 (LOX IMVI melanoma): > 100 µM; TGI (LOX IMVI melanoma): > 100 µM; GI50 (RPMI-8226 leukemia): > 100 µM; TGI (RPMI-8226 leukemia): > 100 µM; GI50 (MCF7 breast): > 100 µM; TGI (MCF7 breast): > 100 µM; GI50 (SK-MEL-2 melanoma): > 100 µM; TGI (SK-MEL-2 melanoma): > 100 µM
